Laboratory results: publication PMC5021139 (Journal of Neuroendocrinology, 2016)

Amino acid sequences for entries named in this document (tags omitted). A change or cut given only in a name is not applied to a line headed by its entry.
UniProt P30559: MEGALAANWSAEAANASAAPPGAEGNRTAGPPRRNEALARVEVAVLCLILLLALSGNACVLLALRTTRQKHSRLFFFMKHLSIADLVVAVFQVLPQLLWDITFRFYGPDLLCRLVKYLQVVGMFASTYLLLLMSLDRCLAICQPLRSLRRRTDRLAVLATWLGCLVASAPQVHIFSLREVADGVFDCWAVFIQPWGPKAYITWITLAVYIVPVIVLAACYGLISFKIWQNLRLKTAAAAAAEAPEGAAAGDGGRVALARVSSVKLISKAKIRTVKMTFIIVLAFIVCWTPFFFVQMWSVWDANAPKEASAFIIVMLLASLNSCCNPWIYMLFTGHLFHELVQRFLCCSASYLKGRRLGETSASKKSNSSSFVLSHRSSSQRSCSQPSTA

Columns and labels:
[1] = biological target: T1, human oxytocin receptor (hOXTR) (Homo sapiens, UniProt P30559); assay: cell-based
[2] = biological target: T1, human oxytocin receptor (hOXTR); details: OXTR/Gq, carbetocin vs oxytocin

## CC[C@H](C)[C@@H]1NC(=O)[C@H](Cc2ccc(OC)cc2)NC(=O)CCCSC[C@@H](C(=O)N2CCC[C@H]2C(=O)N[C@@H](CC(C)C)C(=O)NCC(N)=O)NC(=O)[C@H](CC(N)=O)NC(=O)[C@H](CCC(N)=O)NC1=O [carbetocin, deamino‐1‐monocarba‐(2‐O‐methyltyrosine)‐oxytocin]
[1]
  EC50: 0.0488 ± 0.0161 µM
[2]
  EC50 right-shift compared to oxytocin: five‐fold
